Values quoted from earlier work as cited in US20060229299A1, “5ht2c Receptor antagonists in the treatment of schizophrenia” (priority 2003, published 2006).
Where a name gives a salt, the structure may show the parent alone. Read-outs that look alike come from different tables or passages of the source.

Protein sequences, listed by entry. Tags and fused reporters are not part of them.
UniProt P35367, whole entry: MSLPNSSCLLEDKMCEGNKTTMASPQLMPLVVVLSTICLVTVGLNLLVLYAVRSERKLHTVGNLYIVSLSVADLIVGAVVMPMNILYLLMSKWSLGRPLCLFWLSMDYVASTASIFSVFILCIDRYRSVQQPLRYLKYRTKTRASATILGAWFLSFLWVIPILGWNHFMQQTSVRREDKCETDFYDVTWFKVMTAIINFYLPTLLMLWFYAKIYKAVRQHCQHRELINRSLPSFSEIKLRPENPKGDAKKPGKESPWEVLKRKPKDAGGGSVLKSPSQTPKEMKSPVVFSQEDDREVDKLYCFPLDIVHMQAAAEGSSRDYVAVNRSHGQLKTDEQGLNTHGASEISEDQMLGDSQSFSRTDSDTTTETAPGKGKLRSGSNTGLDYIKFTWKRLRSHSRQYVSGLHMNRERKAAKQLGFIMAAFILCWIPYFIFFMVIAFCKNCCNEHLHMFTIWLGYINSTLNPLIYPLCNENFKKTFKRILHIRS
UniProt P21917, whole entry: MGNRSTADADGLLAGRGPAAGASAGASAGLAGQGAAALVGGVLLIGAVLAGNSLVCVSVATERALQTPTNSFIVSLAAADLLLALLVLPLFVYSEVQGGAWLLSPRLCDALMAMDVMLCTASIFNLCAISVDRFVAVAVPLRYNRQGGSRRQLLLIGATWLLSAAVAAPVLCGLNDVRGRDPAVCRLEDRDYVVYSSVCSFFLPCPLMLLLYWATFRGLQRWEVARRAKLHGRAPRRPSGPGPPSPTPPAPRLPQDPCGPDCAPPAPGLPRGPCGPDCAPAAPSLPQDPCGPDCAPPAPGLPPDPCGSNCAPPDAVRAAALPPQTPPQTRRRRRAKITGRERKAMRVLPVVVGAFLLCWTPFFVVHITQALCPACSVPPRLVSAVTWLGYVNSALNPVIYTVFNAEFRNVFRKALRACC
UniProt P28223, whole entry: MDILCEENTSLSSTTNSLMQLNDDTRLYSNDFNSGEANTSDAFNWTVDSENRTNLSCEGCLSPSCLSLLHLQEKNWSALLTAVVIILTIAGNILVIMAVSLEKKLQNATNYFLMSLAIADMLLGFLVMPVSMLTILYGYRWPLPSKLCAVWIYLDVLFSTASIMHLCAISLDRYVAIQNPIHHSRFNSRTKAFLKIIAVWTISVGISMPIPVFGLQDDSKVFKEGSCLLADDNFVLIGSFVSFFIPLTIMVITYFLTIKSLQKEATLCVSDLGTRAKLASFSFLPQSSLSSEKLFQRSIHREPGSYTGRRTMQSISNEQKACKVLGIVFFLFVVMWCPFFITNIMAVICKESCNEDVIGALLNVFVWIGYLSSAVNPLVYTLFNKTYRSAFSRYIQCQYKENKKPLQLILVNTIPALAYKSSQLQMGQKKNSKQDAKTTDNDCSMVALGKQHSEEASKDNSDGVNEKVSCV

Assays:
[1] = biological target: H1 histamine receptor (Homo sapiens, UniProt P35367); conditions: expressed as KD; cited from earlier work
[2] = biological target: D4 dopamine receptor (Homo sapiens, UniProt P21917); conditions: cited from earlier work
[3] = biological target: 5-HT2A receptor (Homo sapiens, UniProt P28223); conditions: Table 3; expressed as pKi or pKd values; known affinities; cited from earlier work

CN1CCN(CC/C=C2/c3ccccc3Sc3ccc(S(=O)(=O)N(C)C)cc32)CC1 [Thiothixene]
H1 affinity value (−log KD) [1]: 8.2^16

CCN1CCCC1CNC(=O)c1cc(S(N)(=O)=O)ccc1OC (stereo not drawn) [Sulpiride]
D4 affinity value (−logKi) ([2]; human): 7.3^12

CO[C@H]1CC[C@H](OC(=O)[C@@H]2C[C@@H]3c4cccc5c4c(cn5C(C)C)C[C@H]3N(C)C2)CC1 (relative stereo) [Sergolexole, [trans(8β)]6-methyl-1-[1-methylethyl]ergoline-8-carboxylic acid, 4-methoxycyclohexyl ester (maleate salt)]
5-HT2A Affinity [3]: 7.2

CC(C)n1cc2c3c(cccc31)[C@H]1C[C@@H](C(=O)NC3CCCCC3)CN(C)[C@@H]1C2 [Amesergide, N-cyclohexyl-1-isopropyl-6-methyl-ergoline-8-carboxamide]
5-HT2A Affinity [3]: 7.8

O=C1Cc2cc(CCN3CCN(c4nsc5ccccc45)CC3)c(Cl)cc2N1 [Ziprasidone]
D4 affinity value (−logKi) [2]: 7.5^14 | D4 affinity value (−logKi) ([2]; human): 7.4^6
